This passage reports Peak Current Density (pA/pF) and whole-cell currents as percent of WT-SCN5A values results from patent US20080214457A1 (METROHEALTH SYSTEM, published 2008).

The target in the assay is R282H-SCN5A (human) (UniProt Q14524). Kind of assay: cell-based or functional assay.

On to WT-SCN5A (from UniProt Q14524 1-2016), for which the Peak Current Density (pA/pF) was -353 pA/pF and the whole-cell currents as percent of WT-SCN5A values came out at 58%.
For “H558R-SCN5A (from UniProt Q14524 1-2016)”, the Peak Current Density (pA/pF) is -444 pA/pF.
